Results published in article PMC7904827, “Development of water-soluble prodrugs of the bisdioxopiperazine topoisomerase IIβ inhibitor ICRF-193 as potential cardioprotective agents against anthracycline cardiotoxicity” (Scientific Reports, 2021).
Where “and” joins values, the source holds several entries; their conditions need not be identical. Identical values can stand only once.

Tests used:
[1] = ICRF-193 release from GK-667 in rabbit plasma in vitro; format: in vitro ADME; details: GK-667 100 µM, 37 °C
Method: In the next step, the release of ICRF-193 was studied at two concentrations (10 and 100 μM) in rabbit plasma as the relevant biological environment for the in vivo experiments. In these experiments, both GK-667 and ICRF-193 were incubated in rabbit plasma (37 °C) in a thermomixer (350 rpm).
From all of the above described experiments, samples were taken at predefined intervals, treated and immediately analyzed. All experiments were performed in four replicates, and the results are expressed as the mean ± SD.

[2] = Approximate solubility in distilled water at room temperature; format: physicochemical
Method: To improve the solubility of ICRF-193 and enable future in vivo examination of its cardioprotective properties against ANT cardiotoxicity, we prepared three prodrugs (GK-667, GK-678 and GK-691, Fig. 1d) utilizing a concept similar to the design of sobuzoxane. The syntheses of the target prodrugs were performed according to a known three-step procedure with some modifications. Target prodrugs GK-667, GK-678 and GK-691 were obtained in 34%, 37% and 17% overall yields, respectively. […] The resulting solutions remained physically stable for at least two hours at room temperature.

[3] = Process stability in untreated plasma; format: in vitro ADME, rabbit; details: 23 °C, 20 min
Method: Linearity was tested within the concentration range of 0.2 – 100 μM for all compounds in DMEM, the buffer and plasma and 10-100 pmol/106cells in NVCMs (method I). For method II, the concentration ranges 0.01-15 μM and 0.01-1 μM were used for determination of ICRF-193 and ICRF-193met in plasma, respectively. Unweighted and weighted (1/x and 1/x2) linear regression was applied to obtain the best fitting calibration model. […]
Stability of the analytes was examined at low and high concentrations. Process s tability (n=3) in plasma was tested for 20 min at either laboratory temperature (23 °C) or on ice (4 °C, only for GK-667). Post-preparation stability was examined for 8 to 10 h in an autosampler (8 °C, n=3) for all treated matrices. […]

[4] = In vivo pharmacokinetic study of GK-667 in rabbits, noncompartmental analysis; design: species or system rabbit
Method: GK-667 was freshly dissolved in saline (5 mg/mL) before each administration. New Zealand White male rabbits (n = 6, ∼3.8 kg) received GK-667 (5 mg/kg) administered as a single slow (2 min) intravenous dose bolus to the ear marginal vein. Blood (∼1 mL) was sampled from veins on the contralateral ear at selected time points after drug administration (5 min to 9 h) into BD Vacutainers (BD Biosciences, Plymouth, UK) containing lithium heparin. Collected blood samples were immediately centrifuged (2 min, 3000 rpm, 4 °C), and plasma samples were harvested directly.
Plasma samples taken 0 to 20 min after GK-667 administration were immediately processed by the addition of formic acid and precipitation with ice-cold methanol. The supernatants were then analyzed for all analytes, including the intact prodrug. This was essential to ensure the appropriate determination of highly labile GK-667 at the first sampling intervals, and the whole procedure was validated for this purpose. […] Thus, all following plasma samples were immediately shock-frozen in liquid nitrogen and stored at -80 °C until analysis.
For drug administration and blood sampling, light anesthesia was induced in rabbits with a mixture of ketamine (25 mg/kg, i.m.) and midazolam (2.5 mg/kg, i.m.); sedation was then maintained with midazolam when needed. The blood withdrawn from the animals was compensated with an appropriate volume of sterile saline. All in vivo experiments and procedures were approved and supervised by the Animal Welfare Committee of the Faculty of Medicine in Hradec Kralove (Charles University), and the experiments were performed in compliance with the ARRIVE guidelines.
Standard noncompartmental analysis was performed using Kinetica software (version 4.0, Thermo Fisher Scientific Inc., USA). The population parameter estimation for nonlinear mixed effect models was conducted using Monolix version 2019R2 software (Antony, France: Lixoft SAS, 2019, http://lixoft.com/products/monolix/). The stochastic approximation expectation maximization (SAEM) algorithm coupled with Markov Chain Monte Carlo (MCMC) without the use of approximations (linearization) was used for the estimation of the likelihood. For evaluation of the goodness-of-fit, the following plots were assessed: observed versus individual predicted concentrations, weighted residuals versus time and weighted residuals versus predictions. Individual parameter values were obtained as empirical Bayes estimates. A visual predictive check with 1000 simulated data sets was performed.

[5] = Freeze-thaw and storage stability in plasma at -80 °C; format: in vitro ADME, rabbit; details: for % of initial concentration, 1st freeze-thaw cycle / % of initial concentration, 2nd freeze-thaw cycle: plasma, -80 °C
Method: ICRF-193 and ICRF-193met in plasma, respectively. Unweighted and weighted (1/x and 1/x2) linear regression was applied to obtain the best fitting calibration model. […]
(§1) Stability of the analytes was examined at low and high concentrations. Process s tability (n=3) in plasma was tested for 20 min at either laboratory temperature (23 °C) or on ice (4 °C, only for GK-667). Post-preparation stability was examined for 8 to 10 h in an autosampler (8 °C, n=3) for all treated matrices. Freeze-thaw stability of ICRF-193 and ICRF-193met in […]
plasma was tested at -80 °C and the freezing cycle was repeated twice (n=3). […]

[6] = Post-preparation stability of the extracted analytes in autosampler (8 °C); format: physicochemical
Method: Linearity was tested within the concentration range of 0.2 – 100 μM for all compounds in DMEM, the buffer and plasma and 10-100 pmol/106cells in NVCMs (method I). For method II, the concentration ranges 0.01-15 μM and 0.01-1 μM were used for determination of ICRF-193 and ICRF-193met in plasma, respectively. Unweighted and weighted (1/x and 1/x2) linear regression was applied to obtain the best fitting calibration model.
Accuracy and precision were calculated at 4 levels (LLOQ, low, medium and high concentrations). Five quality control (QC) samples were used for all concentration levels. […]
as §1
plasma was tested at -80 °C and the freezing cycle was repeated twice (n=3). The buffer, DMEM, NVCMs and plasma samples containing GK -667 from in vitro studies and from first intervals of pharmacokinetic study (up to 20 min) w ere treated and analyzed immediately after […]

[7] = rabbits n = 6, GK-667 5 mg/kg i.v., NCA
[8] = rabbits n = 6, GK-667 5 mg/kg i.v., NCA, assuming F = 1

In the case of ICRF-193 [reference compound], the “peak concentration of ICRF-193 released in plasma” value [1] is reported as 65 µM, the “time of the ICRF-193 peak concentration in plasma” value [1] is reported as 30 min and the “approximate solubility in distilled water” value [2] is reported as ≤ 5 µg/mL. The “stability in untreated plasma at laboratory temperature” value [3] was “stable”, the ICRF-193-to-GK-667 concentration ratio ([4]; rabbit plasma, 5 min after GK-667 5 mg/kg i.v.) was 7.2 (range: 1.5–14.8) and the AUClast [4, 7] was 4.4 µM·h. The AUCtot [4, 7] was 4.4 µM·h, the AUMClast [4, 7] was 2.9 h^2∙µM and the AUMCtot [4, 7] was 3.0 h^2∙µM. For the same substance, the MRT [4, 7] was 41.4 min, the Tmax [4, 7] was 5 min and the λz [4, 7] was 0.94 h⁻¹. The CL [4, 8] was 31.7 mL/min/kg, the Vss [4, 8] was 1.3 L/kg and the Vz [4, 8] was 2.2 L/kg. The t1/2 ([4]; rabbits n = 6, GK-667 5 mg/kg i.v., NCA, terminal half-life) was 48 min and 46.8 min, the “plasma concentration of ICRF-193” value ([4]; rabbits, 30 min after GK-667 5 mg/kg i.v.) was “approximately 2 µM” and the “plasma concentration of ICRF-193 as part of the corresponding cmax” value ([4]; rabbits, 4 h post injection of GK-667 5 mg/kg i.v.) was “less than 1%”. For the same substance, the “maximal plasma concentration of ICRF-193 over the lowest effective concentration in vitro (0.3 µM)” value ([4]; rabbits, GK-667 5 mg/kg i.v.) was “approximately 30 fold”, the “time ICRF-193 plasma concentration remained in the in vitro effective concentration range” value ([4]; rabbits, GK-667 5 mg/kg i.v.) was “approximately 3 h” and the “degradation in plasma on storage” value ([5]; -80 °C for 1 month) was “no significant degradation”. For the same substance, the “% of initial concentration, 1st freeze-thaw cycle” value ([5]; initial concentration 0.05 µM) was 98.8 ± 5.3%, the “% of initial concentration, 2nd freeze-thaw cycle” value ([5]; initial concentration 0.05 µM) was 96.9 ± 8.2% and the “% of initial concentration, 1st freeze-thaw cycle” value ([5]; initial concentration 10.00 µM) was 94.3 ± 2.3%. The “% of initial concentration, 2nd freeze-thaw cycle” value ([5]; initial concentration 10.00 µM) was 89.6 ± 0.6%, the “percentage of initial concentration in autosampler” value (from here on “percentage of initial concentration”) ([6]; extracted DMEM, 100 µM, 0 h) was 98.5% and the “percentage of initial concentration” value ([6]; extracted DMEM, 100 µM, 8 h) was 101.2%. For the same substance, the “percentage of initial concentration” value ([6]; extracted DMEM, 100 µM, 10 h) was 101.3%, the “percentage of initial concentration” value ([6]; extracted NVCMs, 100 pmol/106 cells, 0 h) was 100.0% and the “percentage of initial concentration” value ([6]; extracted NVCMs, 100 pmol/106 cells, 8 h) was 107.6%. The “percentage of initial concentration” value ([6]; extracted NVCMs, 100 pmol/106 cells, 10 h) was 108.4%, the “percentage of initial concentration” value ([6]; extracted buffer, 100 µM, 0 h) was 98.7% and the “percentage of initial concentration” value ([6]; extracted buffer, 100 µM, 8 h) was 95.4%. The “percentage of initial concentration” value ([6]; extracted buffer, 100 µM, 10 h) was 98.3%, the “percentage of initial concentration” value ([6]; extracted plasma, 100 µM, 0 h) was 99.8% and the “percentage of initial concentration” value ([6]; extracted plasma, 100 µM, 8 h) was 96.4%. For the same substance, the “percentage of initial concentration” value ([6]; extracted plasma, 100 µM, 10 h) was 93.8%.
